ChEMBL document CHEMBL3352090, “Discovery of a Potent Analgesic NOP and Opioid Receptor Agonist: Cebranopadol” (2014)

Sequences of proteins named here, by UniProt entry; tags and fusion partners are left off. A change or cut given only in a name is not applied to a line headed by its entry.
UniProt Q02485, whole entry, looked up: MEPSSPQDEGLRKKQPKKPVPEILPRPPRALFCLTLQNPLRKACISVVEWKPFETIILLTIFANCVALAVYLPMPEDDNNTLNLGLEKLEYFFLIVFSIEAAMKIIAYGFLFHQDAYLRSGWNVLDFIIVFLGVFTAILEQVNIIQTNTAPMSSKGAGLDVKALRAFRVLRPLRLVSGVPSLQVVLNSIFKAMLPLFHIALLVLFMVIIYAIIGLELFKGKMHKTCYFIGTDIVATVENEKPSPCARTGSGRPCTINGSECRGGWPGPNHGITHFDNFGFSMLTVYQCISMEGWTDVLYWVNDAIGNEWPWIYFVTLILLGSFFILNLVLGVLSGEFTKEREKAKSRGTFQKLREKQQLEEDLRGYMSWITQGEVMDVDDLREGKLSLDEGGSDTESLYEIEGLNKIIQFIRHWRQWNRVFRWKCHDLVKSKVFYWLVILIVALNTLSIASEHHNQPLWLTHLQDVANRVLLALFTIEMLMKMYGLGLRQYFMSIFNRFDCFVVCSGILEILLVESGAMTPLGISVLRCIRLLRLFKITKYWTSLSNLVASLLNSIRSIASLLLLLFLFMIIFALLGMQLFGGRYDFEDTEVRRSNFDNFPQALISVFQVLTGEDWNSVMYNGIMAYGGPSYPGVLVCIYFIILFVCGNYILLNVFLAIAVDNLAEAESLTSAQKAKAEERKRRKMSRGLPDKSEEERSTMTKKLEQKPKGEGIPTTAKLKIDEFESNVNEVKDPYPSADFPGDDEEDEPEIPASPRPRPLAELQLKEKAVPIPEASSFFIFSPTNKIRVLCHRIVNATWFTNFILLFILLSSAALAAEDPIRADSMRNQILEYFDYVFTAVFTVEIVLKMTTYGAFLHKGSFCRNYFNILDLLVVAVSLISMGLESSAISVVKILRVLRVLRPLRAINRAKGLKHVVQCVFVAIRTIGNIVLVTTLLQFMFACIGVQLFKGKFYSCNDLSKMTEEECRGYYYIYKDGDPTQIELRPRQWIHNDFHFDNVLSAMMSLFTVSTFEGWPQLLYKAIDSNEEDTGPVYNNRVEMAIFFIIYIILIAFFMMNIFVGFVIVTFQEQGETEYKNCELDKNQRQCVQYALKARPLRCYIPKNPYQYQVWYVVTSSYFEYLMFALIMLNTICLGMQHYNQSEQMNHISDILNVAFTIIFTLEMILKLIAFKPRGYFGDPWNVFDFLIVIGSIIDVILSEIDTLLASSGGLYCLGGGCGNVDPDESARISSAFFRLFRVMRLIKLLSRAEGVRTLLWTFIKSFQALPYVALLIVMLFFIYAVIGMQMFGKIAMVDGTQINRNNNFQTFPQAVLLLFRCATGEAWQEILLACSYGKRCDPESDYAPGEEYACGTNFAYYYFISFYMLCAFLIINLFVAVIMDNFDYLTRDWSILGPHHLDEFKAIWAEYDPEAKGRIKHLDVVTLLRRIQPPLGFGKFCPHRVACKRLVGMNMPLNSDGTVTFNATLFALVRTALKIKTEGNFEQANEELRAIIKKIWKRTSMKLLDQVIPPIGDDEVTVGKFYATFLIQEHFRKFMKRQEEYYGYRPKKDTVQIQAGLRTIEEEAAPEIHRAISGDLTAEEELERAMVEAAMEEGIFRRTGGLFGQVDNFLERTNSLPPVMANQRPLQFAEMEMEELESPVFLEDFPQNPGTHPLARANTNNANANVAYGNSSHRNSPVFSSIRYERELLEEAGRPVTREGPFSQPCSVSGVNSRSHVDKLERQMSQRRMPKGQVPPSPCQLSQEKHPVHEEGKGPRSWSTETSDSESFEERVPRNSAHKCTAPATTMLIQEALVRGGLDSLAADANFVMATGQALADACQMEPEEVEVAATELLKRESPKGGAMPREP
UniProt P27732, whole entry, looked up: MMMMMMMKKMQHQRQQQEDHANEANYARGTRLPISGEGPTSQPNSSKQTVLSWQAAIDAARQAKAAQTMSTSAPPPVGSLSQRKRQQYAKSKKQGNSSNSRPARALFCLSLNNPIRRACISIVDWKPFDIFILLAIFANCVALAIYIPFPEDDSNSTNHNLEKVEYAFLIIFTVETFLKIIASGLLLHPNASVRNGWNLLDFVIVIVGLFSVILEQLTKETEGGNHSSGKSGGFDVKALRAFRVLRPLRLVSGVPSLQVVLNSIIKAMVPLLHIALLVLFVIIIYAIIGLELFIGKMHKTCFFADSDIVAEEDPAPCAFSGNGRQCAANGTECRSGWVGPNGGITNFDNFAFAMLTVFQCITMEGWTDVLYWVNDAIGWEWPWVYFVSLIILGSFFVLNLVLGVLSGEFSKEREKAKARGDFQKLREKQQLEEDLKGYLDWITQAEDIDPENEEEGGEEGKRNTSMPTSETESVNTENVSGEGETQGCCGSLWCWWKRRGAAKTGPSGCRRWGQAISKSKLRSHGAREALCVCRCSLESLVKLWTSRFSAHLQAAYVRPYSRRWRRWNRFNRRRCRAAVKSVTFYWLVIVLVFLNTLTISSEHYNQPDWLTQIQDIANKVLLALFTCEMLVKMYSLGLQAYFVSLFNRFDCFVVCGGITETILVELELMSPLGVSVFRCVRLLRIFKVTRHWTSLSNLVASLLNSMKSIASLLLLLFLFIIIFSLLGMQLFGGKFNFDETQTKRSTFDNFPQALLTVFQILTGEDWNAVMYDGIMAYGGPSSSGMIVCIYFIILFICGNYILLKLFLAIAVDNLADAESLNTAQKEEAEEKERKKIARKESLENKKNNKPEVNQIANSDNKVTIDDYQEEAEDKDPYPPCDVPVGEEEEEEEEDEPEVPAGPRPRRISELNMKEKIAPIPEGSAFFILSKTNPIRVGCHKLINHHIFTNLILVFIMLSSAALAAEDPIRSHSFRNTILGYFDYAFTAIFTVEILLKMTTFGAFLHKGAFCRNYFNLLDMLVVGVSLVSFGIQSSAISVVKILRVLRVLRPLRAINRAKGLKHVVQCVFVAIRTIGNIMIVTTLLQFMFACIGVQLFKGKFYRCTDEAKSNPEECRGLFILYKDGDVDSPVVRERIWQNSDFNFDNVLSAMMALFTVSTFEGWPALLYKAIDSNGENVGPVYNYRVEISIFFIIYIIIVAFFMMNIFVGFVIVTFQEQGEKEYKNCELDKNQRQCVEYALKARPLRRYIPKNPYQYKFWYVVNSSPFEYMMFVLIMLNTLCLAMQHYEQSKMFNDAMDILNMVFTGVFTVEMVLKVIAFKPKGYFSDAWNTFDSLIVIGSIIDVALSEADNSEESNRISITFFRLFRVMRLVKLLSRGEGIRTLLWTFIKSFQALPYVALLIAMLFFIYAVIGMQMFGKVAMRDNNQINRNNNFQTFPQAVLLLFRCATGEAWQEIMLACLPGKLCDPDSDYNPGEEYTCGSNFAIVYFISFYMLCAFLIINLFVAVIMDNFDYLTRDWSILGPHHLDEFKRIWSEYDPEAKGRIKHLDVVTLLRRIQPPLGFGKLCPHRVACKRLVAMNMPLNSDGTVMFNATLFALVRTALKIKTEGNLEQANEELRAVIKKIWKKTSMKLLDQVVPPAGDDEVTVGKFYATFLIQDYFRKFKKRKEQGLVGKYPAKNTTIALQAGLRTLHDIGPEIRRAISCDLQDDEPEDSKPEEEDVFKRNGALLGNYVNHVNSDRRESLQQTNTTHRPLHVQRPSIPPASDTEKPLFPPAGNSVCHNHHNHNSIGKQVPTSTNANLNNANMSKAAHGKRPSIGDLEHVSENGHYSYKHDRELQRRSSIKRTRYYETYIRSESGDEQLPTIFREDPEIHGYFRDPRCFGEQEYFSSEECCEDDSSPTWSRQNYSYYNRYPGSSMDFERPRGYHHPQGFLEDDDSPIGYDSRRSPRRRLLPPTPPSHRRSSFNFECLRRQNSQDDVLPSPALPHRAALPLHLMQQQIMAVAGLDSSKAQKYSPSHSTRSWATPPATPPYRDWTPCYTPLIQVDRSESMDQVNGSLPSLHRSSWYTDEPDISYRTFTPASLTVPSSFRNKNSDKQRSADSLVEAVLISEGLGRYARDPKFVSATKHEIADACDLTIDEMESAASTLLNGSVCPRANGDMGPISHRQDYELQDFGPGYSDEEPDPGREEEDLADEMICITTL
UniProt P20813: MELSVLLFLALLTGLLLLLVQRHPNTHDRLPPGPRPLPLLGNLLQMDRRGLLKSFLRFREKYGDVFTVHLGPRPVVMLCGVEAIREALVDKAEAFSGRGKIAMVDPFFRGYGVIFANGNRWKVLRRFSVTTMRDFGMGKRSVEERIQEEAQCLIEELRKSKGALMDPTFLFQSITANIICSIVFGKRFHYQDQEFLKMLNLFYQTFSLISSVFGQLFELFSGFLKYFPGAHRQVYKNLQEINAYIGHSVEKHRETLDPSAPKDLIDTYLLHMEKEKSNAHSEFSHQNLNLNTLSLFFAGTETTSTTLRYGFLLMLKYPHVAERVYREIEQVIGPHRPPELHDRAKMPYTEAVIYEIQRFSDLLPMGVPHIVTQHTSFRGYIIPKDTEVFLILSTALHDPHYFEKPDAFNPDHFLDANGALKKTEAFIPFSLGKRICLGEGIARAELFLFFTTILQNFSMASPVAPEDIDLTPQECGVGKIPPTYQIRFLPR
UniProt P10632, whole entry, looked up: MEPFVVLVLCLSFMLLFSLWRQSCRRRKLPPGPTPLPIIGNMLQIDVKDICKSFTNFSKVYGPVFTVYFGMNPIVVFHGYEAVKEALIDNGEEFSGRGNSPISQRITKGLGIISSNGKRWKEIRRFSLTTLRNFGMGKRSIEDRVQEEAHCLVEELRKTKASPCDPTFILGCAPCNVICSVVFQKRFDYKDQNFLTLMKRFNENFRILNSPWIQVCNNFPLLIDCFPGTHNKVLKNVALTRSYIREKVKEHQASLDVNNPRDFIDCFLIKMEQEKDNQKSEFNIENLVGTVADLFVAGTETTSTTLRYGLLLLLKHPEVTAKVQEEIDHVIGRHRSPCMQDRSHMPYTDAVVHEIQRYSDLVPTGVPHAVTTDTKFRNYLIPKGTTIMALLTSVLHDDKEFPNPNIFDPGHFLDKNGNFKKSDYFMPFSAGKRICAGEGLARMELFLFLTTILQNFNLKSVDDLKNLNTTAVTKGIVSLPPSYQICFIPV
UniProt P33261, whole entry, looked up: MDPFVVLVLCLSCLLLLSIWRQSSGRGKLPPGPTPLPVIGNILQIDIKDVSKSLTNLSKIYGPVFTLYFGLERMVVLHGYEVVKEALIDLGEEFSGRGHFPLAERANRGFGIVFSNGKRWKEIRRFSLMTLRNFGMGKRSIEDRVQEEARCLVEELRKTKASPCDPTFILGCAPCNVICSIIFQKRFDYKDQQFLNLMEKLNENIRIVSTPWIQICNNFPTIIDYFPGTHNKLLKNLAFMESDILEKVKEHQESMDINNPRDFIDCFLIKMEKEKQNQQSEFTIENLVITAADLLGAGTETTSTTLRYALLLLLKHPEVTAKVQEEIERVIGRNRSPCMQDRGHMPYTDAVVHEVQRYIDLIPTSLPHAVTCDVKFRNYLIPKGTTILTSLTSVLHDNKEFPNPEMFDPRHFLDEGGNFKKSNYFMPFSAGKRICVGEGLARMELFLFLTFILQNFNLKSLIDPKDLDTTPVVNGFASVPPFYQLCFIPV
UniProt P41143, whole entry, looked up: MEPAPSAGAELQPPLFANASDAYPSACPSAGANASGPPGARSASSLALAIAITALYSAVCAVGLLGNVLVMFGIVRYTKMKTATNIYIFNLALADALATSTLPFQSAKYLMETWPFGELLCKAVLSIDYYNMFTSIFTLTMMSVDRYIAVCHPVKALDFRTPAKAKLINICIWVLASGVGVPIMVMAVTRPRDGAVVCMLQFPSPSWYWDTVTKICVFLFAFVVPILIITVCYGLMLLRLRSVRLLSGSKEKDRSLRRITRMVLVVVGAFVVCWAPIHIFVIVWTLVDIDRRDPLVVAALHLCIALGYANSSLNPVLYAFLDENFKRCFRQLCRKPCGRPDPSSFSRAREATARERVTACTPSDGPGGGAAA
UniProt P41145: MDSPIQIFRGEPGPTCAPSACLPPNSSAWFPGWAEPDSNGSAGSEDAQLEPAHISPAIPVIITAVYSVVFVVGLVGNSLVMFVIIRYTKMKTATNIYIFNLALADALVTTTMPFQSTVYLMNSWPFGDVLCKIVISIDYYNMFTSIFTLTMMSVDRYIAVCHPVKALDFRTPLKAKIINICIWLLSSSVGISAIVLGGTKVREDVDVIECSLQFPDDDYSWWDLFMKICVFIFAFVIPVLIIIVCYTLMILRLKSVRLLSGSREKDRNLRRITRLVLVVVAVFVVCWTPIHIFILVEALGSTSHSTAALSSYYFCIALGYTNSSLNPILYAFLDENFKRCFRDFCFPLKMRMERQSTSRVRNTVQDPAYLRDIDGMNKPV

Tests used:
Mu-type opioid receptor [1] = target: T1, Mu-type opioid receptor (Homo sapiens, UniProt P35372); assay: Displacement of [3H]naloxone from human MOP receptor expressed in CHO-K1 cells by scintillation proximity assay
Nociceptin receptor [2] = target: T2, Nociceptin receptor (Homo sapiens, UniProt P41146); assay: Displacement of [3H]nociceptin from human NOP receptor expressed in CHO-K1 cells by scintillation proximity assay
[3] = target: T3, Voltage-gated inwardly rectifying potassium channel KCNH2 (Homo sapiens, UniProt Q12809); assay: Inhibition of human ERG
Mus musculus [4] = species: Mus musculus; assay: Volume of distribution in mouse; settings: in vivo
Mus musculus [5] = species: Mus musculus; assay: Half life in mouse; settings: in vivo
Mus musculus [6] = assay: Antinociceptive activity in CD1 mouse model of streptozotocin induced diabetic polyneuropathy assessed as reduction in thermal hyperalgesia at 2.1 nmol/kg, iv by hot plate test relative to untreated control
Mus musculus [7] = assay: Neurotoxicity in iv dosed CD1 mouse assessed as impairment of motor coordination by rotarod test; settings: in vivo
Mus musculus [8] = assay: Neurotoxicity in CD1 mouse assessed as reduction in time for animals to remain on rotating rod at 454 nmol/kg, iv by rotarod test; settings: in vivo
Cytochrome P450 2E1 = Cytochrome P450 2E1 (Homo sapiens, UniProt P05181); assay: Inhibition of human CYP2E1 up to 250 nM
Mus musculus [9] = assay: Antinociceptive activity in iv dosed NMRI mouse assessed as increase in latency for tail withdrawal from radiant heat source by tail flick test; settings: strain NMRI
Cytochrome P450 1A2 = Cytochrome P450 1A2 (Homo sapiens, UniProt P05177); assay: Inhibition of human CYP1A2 up to 250 nM
Mus musculus [10] = assay: Neurotoxicity in CD1 mouse assessed as effect on motor coordination up to 376 nmol/kg, iv by rotarod test; settings: in vivo
Mus musculus [11] = assay: Antinociceptive activity in iv dosed NMRI mouse assessed as time duration showing >20% maximum possible antinociceptive efficacy by tail flick test; settings: strain NMRI
Mus musculus [12] = assay: Neurotoxicity in CD1 mouse assessed as increase in failure to stay on rotating rod at 454 nmol/kg, iv by rotarod test; settings: in vivo
Mus musculus [13] = assay: Antinociceptive activity in orally dosed NMRI mouse assessed as time duration showing >20% maximum possible antinociceptive efficacy by tail flick test; settings: strain NMRI
Mus musculus [14] = assay: Antinociceptive activity in orally dosed NMRI mouse assessed as increase in latency for tail withdrawal from radiant heat source by tail flick test; settings: strain NMRI
[15] = target: T4, Voltage-gated L-type calcium channel (Rattus norvegicus, UniProt P22002+Q02485+P27732); assay: Inhibition of rat brain cortex L-type Ca2+-channel phenylalkylamine site
Cytochrome P450 2B6 = Cytochrome P450 2B6 (Homo sapiens, UniProt P20813); assay: Inhibition of human CYP2B6 up to 250 nM
[16] = target: T3, Voltage-gated inwardly rectifying potassium channel KCNH2; assay: Inhibition of human ERG expressed in HEK293 cells assessed as reduction in potassium currents up to 10 uM by whole cell patch clamp method
Cytochrome P450 2A6 = Cytochrome P450 2A6 (Homo sapiens, UniProt P11509); assay: Inhibition of human CYP2A6 up to 250 nM
Cytochrome P450 2D6 = Cytochrome P450 2D6 (Homo sapiens, UniProt P10635); assay: Inhibition of human CYP2D6 up to 250 nM
Mus musculus [17] = assay: Potency index, ratio of antinociceptive ED50 for iv dosed NMRI mouse by tail flick test to antinociceptive efficacy in CD1 mouse model of streptozotocin induced diabetic polyneuropathy
Mus musculus [18] = assay: Gastrointestinal toxicity in iv dosed NMRI mouse assessed as inhibition of intestinal charcoal transit by charcoal transit test; settings: in vivo
Mus musculus [19] = assay: Neurotoxicity in iv dosed CD1 mouse by rotarod test; settings: in vivo
Cytochrome P450 2C9 = Cytochrome P450 2C9 (Homo sapiens, UniProt P11712); assay: Inhibition of human CYP2C9 up to 250 nM
Cytochrome P450 2C8 = Cytochrome P450 2C8 (Homo sapiens, UniProt P10632); assay: Inhibition of human CYP2C8 up to 250 nM
Cytochrome P450 3A5 = Cytochrome P450 3A5 (Homo sapiens, UniProt P20815); assay: Inhibition of human CYP3A5 up to 250 nM
Rattus norvegicus = assay: Oral bioavailability in rat; settings: in vivo
Mus musculus [20] = assay: Safety index, ratio of NOAEL for iv dosed CD1 mouse by rotarod test to antinociceptive ED50 for iv dosed NMRI mouse by tail flick test
[21] = target: T4, Voltage-gated L-type calcium channel; assay: Inhibition of rat whole brain L-type Ca2+-channel dihydropyridine site
Mus musculus [22] = assay: Neurotoxicity in CD1 mouse assessed as impairment of motor coordination at 454 nmol/kg, iv by rotarod test; settings: in vivo
Mus musculus [23] = assay: Neurotoxicity in CD1 mouse assessed as maximum performance time on rotating rod at 454 nmol/kg, iv after 15 mins post dose by rotarod test (reference value: 120 secs); settings: in vivo, 0.25 h
[24] = target: T4, Voltage-gated L-type calcium channel; assay: Inhibition of rat brain cortex L-type Ca2+-channel benzothiazepine site
Cytochrome P450 3A4 = Cytochrome P450 3A4 (Homo sapiens, UniProt P08684); assay: Inhibition of human CYP3A4 up to 250 nM
Cytochrome P450 2C19 = Cytochrome P450 2C19 (Homo sapiens, UniProt P33261); assay: Inhibition of human CYP2C19 up to 250 nM
[25] = target: Delta-type opioid receptor (Homo sapiens, UniProt P41143); assay: Binding affinity to human delta opioid receptor
Nociceptin receptor [26] = target: T2, Nociceptin receptor; assay: Agonist activity at human recombinant NOP receptor expressed in CHO-K1 cells assessed as stimulation of [35S]GTPgammaS binding by scintillation proximity assay
[27] = target: Kappa-type opioid receptor (Homo sapiens, UniProt P41145); assay: Binding affinity to human kappa opioid receptor
Mu-type opioid receptor [28] = target: T1, Mu-type opioid receptor; assay: Agonist activity at human recombinant MOP receptor expressed in CHO-K1 cells assessed as stimulation of [35S]GTPgammaS binding by scintillation proximity assay
Mus musculus [29] = assay: Oral bioavailability in mouse; settings: in vivo

SMILES: Cc1ccc2[nH]c3c(c2c1)CCO[C@]31CC[C@](c2ccccc2)(N(C)C)CC1
- Ki (Mu-type opioid receptor [1]): 2.7 nM
- Ki (Nociceptin receptor [2]): 4.5 nM

SMILES: CN(C)[C@]1(c2ccccc2)CC[C@]2(CC1)NCCc1c3ccccc3[nH]c12.Cl
- inhibition (INH) ([3]; human): Active

SMILES: CN[C@]1(c2ccccc2)CC[C@]2(CC1)OCCc1c3cc(F)ccc3[nH]c12.O=C(O)CC(O)(CC(=O)O)C(=O)O
- Vz (Mus musculus [4]): 72.5 L/kg
- t1/2 (Mus musculus [5]): 3.5 h

SMILES: CN(C)[C@]1(c2ccccc2)CC[C@]2(CC1)OCCc1c3cc(F)ccc3[nH]c12.O=C(O)CC(O)(CC(=O)O)C(=O)O
- MPE (Mus musculus [6]): 54.1%
- ED50 (Mus musculus [7]): > 454 nmol/kg
- Time (Mus musculus [8]): 30 min
- inhibition (INH) (Cytochrome P450 2E1): Not Active
- ED50 (Mus musculus [9]): 0.0401 µmol/kg
- MPE (Mus musculus [9]): > 95%
- Vc (Mus musculus [4]): 2.96 L/kg
- inhibition (INH) (Cytochrome P450 1A2): Not Active
- Activity (Mus musculus [10]): Non-toxic
- Time (Mus musculus [11]): 180 min
- Activity (Mus musculus [12]): Toxic
- Time (Mus musculus [13]): > 480 min
- ED50 (Mus musculus [14]): 0.077 µmol/kg
- MPE (Mus musculus [14]): 100%
- Ki [15]: 480 nM
- t1/2 (Mus musculus [5]): 2.57 h
- inhibition (INH) (Cytochrome P450 2B6): Not Active
- inhibition (INH) [16]: Not Active
- inhibition (INH) (Cytochrome P450 2A6): Not Active
- inhibition (INH) (Cytochrome P450 2D6): Not Active
- Ratio (Mus musculus [17]): 20
- Activity (Mus musculus [18]): Dose-dependent effect
- ED50 (Mus musculus [18]): 87 nmol/kg
- NOAEL (Mus musculus [18]): 21 nmol/kg
- NOAEL (Mus musculus [19]): 376 nmol/kg
- inhibition (INH) (Cytochrome P450 2C9): Not Active
- inhibition (INH) (Cytochrome P450 2C8): Not Active
- inhibition (INH) (Cytochrome P450 3A5): Not Active
- bioavailability (Rattus norvegicus): 23%
- TI (Mus musculus [20]): ≥ 10
- Ki [21]: > 100000 nM
- Activity (Mus musculus [22]): Toxic
- Time (Mus musculus [23]): 72 s
- Ki [24]: 800 nM
- inhibition (INH) (Cytochrome P450 3A4): Not Active
- inhibition (INH) (Cytochrome P450 2C19): Not Active

SMILES: CN(C)[C@]1(c2ccccc2)CC[C@@]2(CC1)OCCc1c3cc(F)ccc3[nH]c12
- Ki (Mu-type opioid receptor [1]): 46 nM
- Ki (Nociceptin receptor [2]): 97.4 nM

SMILES: CN(C)[C@]1(c2ccccc2)CC[C@]2(CC1)SCCc1c3ccccc3[nH]c12
- Ki (Mu-type opioid receptor [1]): 3.1 nM
- Ki (Nociceptin receptor [2]): 3.7 nM

SMILES: COc1ccc2[nH]c3c(c2c1)CCO[C@]31CC[C@](c2ccccc2)(N(C)C)CC1
- Ki (Mu-type opioid receptor [1]): 1.1 nM
- Ki (Nociceptin receptor [2]): 9.4 nM

SMILES: CN(C)[C@]1(c2ccccc2)CC[C@]2(CC1)OCCc1c3cc(F)ccc3[nH]c12
- Ki [25]: 18 nM
- EC50 (Nociceptin receptor [26]): 13 nM
- Ki [3]: > 100000 nM
- Ki [27]: 2.6 nM
- Ki (Mu-type opioid receptor [1]): 0.7 nM
- EC50 (Mu-type opioid receptor [28]): 1.2 nM
- Ki (Nociceptin receptor [2]): 0.9 nM

SMILES: CN(C)[C@]1(c2ccccc2)CC[C@@]2(CCCc3c4ccccc4[nH]c32)CC1
- Ki (Mu-type opioid receptor [1]): 1.95 nM
- Ki (Nociceptin receptor [2]): 1.26 nM

SMILES: CN(C)[C@]1(c2ccccc2)CC[C@]2(CC1)OCCc1c3cc(O)ccc3[nH]c12.O=C(O)CC(O)(CC(=O)O)C(=O)O
- bioavailability (Mus musculus [29]): 14%

SMILES: CN1CC[C@]23c4c5ccc(O)c4O[C@H]2C(=O)CC[C@H]3[C@H]1C5.Cl
- ED50 (Mus musculus [9]): 0.622 µmol/kg
- MPE (Mus musculus [9]): 100%
- ED50 (Mus musculus [14]): 18.8 µmol/kg
- MPE (Mus musculus [14]): > 95%
